Laboratory results: patent US20050065348A1, “Pyridin-2-yl-methylamine derivatives for treating opioid dependence” (priority 2001, published 2005)

Chains of the proteins cited; added tags and fusions are not shown.
UniProt P19327, whole entry: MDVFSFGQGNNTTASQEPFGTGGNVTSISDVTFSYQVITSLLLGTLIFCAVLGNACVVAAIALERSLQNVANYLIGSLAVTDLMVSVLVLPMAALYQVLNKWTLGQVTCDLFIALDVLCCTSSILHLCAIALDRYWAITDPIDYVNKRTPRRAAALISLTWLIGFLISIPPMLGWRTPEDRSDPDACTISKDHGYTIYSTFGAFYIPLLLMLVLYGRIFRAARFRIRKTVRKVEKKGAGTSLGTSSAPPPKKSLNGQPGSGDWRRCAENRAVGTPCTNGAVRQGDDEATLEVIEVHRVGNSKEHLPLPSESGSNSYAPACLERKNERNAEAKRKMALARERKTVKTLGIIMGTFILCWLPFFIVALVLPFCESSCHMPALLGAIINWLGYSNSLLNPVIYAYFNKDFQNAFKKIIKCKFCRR

Assays:
[1] = tested on: morphine withdrawal syndrome (hyperalgesia); test: Effects on morphine dependence: naloxone-precipitated withdrawal hyperalgesia (Randall and Selitto nociceptive thresholds); type: in vivo; conditions: rat; co-treatment morphine 5 mg/rat/day + compound 2.5 mg/rat/day, s.c. osmotic mini-pumps 2 weeks; naloxone 0.63 mg/kg s.c.; SNK p<0.05 vs control
5-HT1A receptor = target: T1, 5-HT1A receptor (Rattus norvegicus, UniProt P19327); test: Affinity for the 5-HT1A receptor (3H-8-OH-DPAT displacement); type: binding; conditions: Tissue: cerebral cortex of rat, average of at least 3 experiments, read-out: pKi site 5-HT1A (converted)
T1 construct: Tissue: cerebral cortex of rat; from tissue; host or cells: rat cerebral cortex
Experimental: Measurement of the affinity of compound F and reference products for the 5-HT1A receptor
Study of the bond with the 5-HT1A receptor was carried out according to a standard method (Naunyn-Schmiedeberg's Arch. Pharmaco. 1991, 343, 106). The inhibition constants (Ki) of the products according to the invention were estimated from displacement experiments using the version 4 RADLIG non-linear regression programme of EBDA (Equilibrium Binding Data Analysis) (Biosoft, Cambridge, UK, Mc Pherson, 1985). The dissociation constants of the radioactive ligands used in the calculations are 0.31 nmole for ^3H-8-OH-DPAT. The values of pKi (−logKi) are provided under the form of average±SEM of at least 3 experiments.

In the case of CC1(C)CC(=O)N(CCCCN2CCN(c3ncccn3)CC2)C(=O)C1 [gepirone], the “Effect on hyperalgesia / morphine withdrawal syndrome (AUC of nociceptive thresholds)” value [1] was “did not have any detectable effect on the hyperalgesia” and the Ki (5-HT1A receptor) was 67.6 nM.
